Assay results reported in patent US20240368104A1, “Novel Dialkoxynaphtho[2,3-C]Furan-1(3H)-One Derivatives and Pharmaceutical Composition For Preventing or Treating Respiratory Disease or SARS-COV-2 Infection Disease, Comprising Same” (priority 2021, published 2024).

Key:
[1] = system: influenza virus standard strain H1N1 (A/PR/8/34; H1N1); test: Inhibitory effect against influenza virus standard strain H1N1 in MDCK cells; type: cell-based; conditions: 66 hours, read-out: H1N1 inhibition (EC50)
in vitro = conditions: dog, MDCK cells (infected with influenza A/PR/8/34 H1N1)

Compound | EC50 [1] [µM] | CC50 at 66 h (in vitro) [µM]
COc1cc2cc3c(c(-c4ccc(N5CCCCC5)nc4)c2cc1OC)C(=O)OC3 [Example 123, 6,7-dimethoxy-9-(6-(piperidin-1-yl)pyridin-3-yl)naphtho[2,3-c]furan-1(3H)-one] | 0.198 | 2.03
COc1cc2cc3c(c(-c4ccc5c(c4)N(C)CCC5)c2cc1OC)C(=O)OC3 [Example 170, 6,7-dimethoxy-9-(1-methyl-1,2,3,4-tetrahydroquinolin-7-yl)naphtho[2,3-c]furan-1(3H)-one] | 1.67 | 6.82
COc1cc2cc3c(c(-c4ccc5c(c4)OC(F)(F)O5)c2cc1OC)C(=O)OC3 [Example 221, 9-(2,2-difluorobenzo[d][1,3]dioxol-5-yl)-6,7-dimethoxynaphtho[2,3-c]furan-1(3H)-one] | 0.249 | 0.752
COc1cc2cc3c(c(-c4ccc(N5CCSCC5)nc4)c2cc1OC)C(=O)OC3 [Example 10, 6,7-dimethoxy-9-(6-thiomorpholinopyridin-3-yl)naphtho[2,3-c]furan-1(3H)-one] | 0.17 | 1.23
COc1cc2cc3c(c(-c4ccc(N(C)Cc5ccc(C)o5)nc4)c2cc1OC)C(=O)OC3 [Example 179, 6,7-dimethoxy-9-(6-(methyl((5-methylfuran-2-yl)methyl)amino)pyridin-3-yl)naphtho[2,3-c]furan-1(3H)-one] | 0.178 | 1.63
COc1cc2cc3c(c(-c4ccc(N(C)[C@H]5CCc6c(cccc6OC)C5)nc4)c2cc1OC)C(=O)OC3 [Example 164, (S)-6,7-dimethoxy-9-(6-((5-methoxy-1,2,3,4-tetrahydronaphthalen-2-yl)(methyl)amino)pyridin-3-yl)naphtho[2,3-c]furan-1(3H)-one] | 17.2 | > 100
COc1cc2cc3c(c(-c4ccc5occc5c4)c2cc1OC)C(=O)OC3 [Example 52, 9-(benzofuran-5-yl)-6,7-dimethoxynaphtho[2,3-c]furan-1(3H)-one] | 1.89 | 4.47
COc1cc2cc3c(c(-c4cnc(N5CCOCC5)nc4)c2cc1OC)C(=O)OC3 [Example 51, 6,7-dimethoxy-9-(2-morpholinopyrimidin-5-yl)naphtho[2,3-c]furan-1(3H)-one] | 0.107 | 1.76
